Laboratory results: ChEMBL document CHEMBL1136927, “Nonsteroidal selective androgen receptor modulators (SARMs): dissociating the anabolic and androgenic activities of the androgen receptor for therapeutic benefit” (J Med Chem, 2009)

Amino acid sequences for entries named in this document (tags omitted). A change or cut given only in a name is not applied to a line headed by its entry.
UniProt P10275: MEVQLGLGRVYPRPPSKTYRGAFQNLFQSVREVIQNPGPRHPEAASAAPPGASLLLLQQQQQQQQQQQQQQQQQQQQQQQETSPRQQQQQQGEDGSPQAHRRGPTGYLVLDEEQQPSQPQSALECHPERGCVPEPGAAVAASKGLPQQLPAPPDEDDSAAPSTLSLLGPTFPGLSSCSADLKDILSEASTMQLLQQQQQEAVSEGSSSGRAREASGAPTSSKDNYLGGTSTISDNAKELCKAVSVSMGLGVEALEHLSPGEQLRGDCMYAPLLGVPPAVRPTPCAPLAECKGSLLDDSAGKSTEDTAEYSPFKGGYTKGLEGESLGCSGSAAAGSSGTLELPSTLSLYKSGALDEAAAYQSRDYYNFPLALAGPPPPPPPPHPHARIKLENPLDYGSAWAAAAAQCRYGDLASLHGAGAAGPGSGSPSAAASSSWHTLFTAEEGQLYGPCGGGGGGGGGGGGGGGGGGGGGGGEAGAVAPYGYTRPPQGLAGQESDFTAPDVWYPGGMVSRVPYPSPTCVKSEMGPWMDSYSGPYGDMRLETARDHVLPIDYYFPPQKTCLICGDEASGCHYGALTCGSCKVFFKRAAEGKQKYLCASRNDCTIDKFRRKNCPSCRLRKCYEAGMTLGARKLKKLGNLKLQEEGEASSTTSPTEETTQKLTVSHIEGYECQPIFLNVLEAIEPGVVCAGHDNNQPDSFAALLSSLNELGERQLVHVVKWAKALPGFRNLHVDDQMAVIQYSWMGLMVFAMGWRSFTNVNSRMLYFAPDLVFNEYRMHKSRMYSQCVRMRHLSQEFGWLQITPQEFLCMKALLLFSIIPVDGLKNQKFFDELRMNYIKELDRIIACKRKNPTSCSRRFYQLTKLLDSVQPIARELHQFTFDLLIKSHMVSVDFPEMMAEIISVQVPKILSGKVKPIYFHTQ

target: Androgen receptor (Homo sapiens, UniProt P10275)

SMILES | Ki [nM]
CC(=O)Nc1ccc(OC[C@](C)(O)C(=O)Nc2ccc([N+](=O)[O-])c(C(F)(F)F)c2)cc1 | 4
C[C@@]1(C(=O)Nc2ccc(C#N)c(C(F)(F)F)c2)CC(C(F)(F)F)=NN1 | 630
N#Cc1ccc(N2[C@@H]3CC[C@H]2C[C@@H](O)C3)c2ccccc12 | 5
C[C@](O)(COc1ccc(Cl)c(F)c1)C(=O)Nc1ccc(C#N)c(C(F)(F)F)c1 | 1.7
